The nature of this data set: Solubility tests in anhydrous hexane (stirred 30 minutes at room temperature, filtered, solvent removed). It is filed as physicochemical. Conditions: filtered through 4-5.5 micron frit. How it is done:
Into a vial was placed 0.097 g of 2,6-bis-[1-(2-chloro-4,6-dimethylphenylimino)ethyl]pyridine iron-silylneopentyl with 2.007 g of anhydrous hexane. This solution was stirred for 30 minutes at room temperature. The contents were then filtered through a buchner filter funnel with a frit having a 4-5.5 micron size. The solvent was then removed en vacuo.
Comparitive: Into a vial was placed 0.077 g 2,6-bis-[1-(2-chloro-4,6-dimethylphenylimino)ethyl]pyridine iron dichloride with 2.008 g of anhydrous hexane (Sigma Aldrich). This solution was stirred for 30 minutes at room temperature. The contents were then filtered through a buchner filter funnel with a frit having a 4-5.5 micron size. The solvent was then removed en vacuo.

“2,6-bis-[1-(2-chloro-4,6-dimethylphenylimino)ethyl]pyridine iron-silylneopentyl [Catalyst 2]”: the calculated solubility is 5.0 g/g hexane.

These data come from patent publication US11718635B2, “Iron bis(imino) aryl catalysts and methods thereof” (ExxonMobil Chemical Patents Inc., priority 2019, dated 2023).
